Bounds are passed on as bounds.

By UniProt entry, the sequences of proteins in these tests, tags left out. Residues count along the entry.
UniProt P27958, 1027-1657: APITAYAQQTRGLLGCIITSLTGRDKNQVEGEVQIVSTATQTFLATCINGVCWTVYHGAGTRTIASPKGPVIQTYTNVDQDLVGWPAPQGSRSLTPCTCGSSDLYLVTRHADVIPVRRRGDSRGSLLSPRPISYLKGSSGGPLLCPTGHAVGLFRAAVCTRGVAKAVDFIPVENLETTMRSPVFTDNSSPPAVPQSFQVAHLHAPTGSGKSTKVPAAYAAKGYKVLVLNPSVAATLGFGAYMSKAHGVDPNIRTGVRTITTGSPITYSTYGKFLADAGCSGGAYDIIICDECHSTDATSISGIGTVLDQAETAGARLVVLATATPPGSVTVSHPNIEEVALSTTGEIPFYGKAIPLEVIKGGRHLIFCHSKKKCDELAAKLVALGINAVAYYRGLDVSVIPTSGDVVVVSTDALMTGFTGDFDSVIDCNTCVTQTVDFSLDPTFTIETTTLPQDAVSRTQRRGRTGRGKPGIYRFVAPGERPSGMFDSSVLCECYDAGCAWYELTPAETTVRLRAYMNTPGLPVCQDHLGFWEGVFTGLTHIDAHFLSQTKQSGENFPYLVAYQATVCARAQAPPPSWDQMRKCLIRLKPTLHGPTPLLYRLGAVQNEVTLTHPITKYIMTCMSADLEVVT
UniProt P27958, 1658-1711: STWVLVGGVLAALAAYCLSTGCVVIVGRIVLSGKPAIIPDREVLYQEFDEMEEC

The term Ki denotes the equilibrium dissociation constant of an inhibitor or competing ligand from its target.

The first assay concerns the target Recombinant heterodimeric HCV NS3/NS4A protease (strain 1a) (Hepatitis C virus genotype 1a, UniProt P27958). Briefly: Spectrophotometric assay for HCV protease inhibitory activity. It counts as biochemical. The settings on record: Table 1, range.
As to `C=CCNC(=O)C(=O)C(CC1CCC1)NC(=O)[C@@H]1[C@@H]2[C@H](CN1C(=O)[C@@H](NC(=O)N[C@H](CN(C)S(=O)(=O)N(C)C(=O)OCc1ccccc1)C(C)(C)C)C(C)(C)C)C2(C)C` (stereo partly shown) [Compound 10054], the Ki is no more than 75 nM.

Still in this assay, the particulars now being: Table 2, range.
For `C=CCNC(=O)C(=O)C(CCCC)NC(=O)[C@@H]1[C@@H]2[C@H](CN1C(=O)[C@@H](NC(=O)NC1(CN(C)S(C)(=O)=O)CCCCC1)C(C)(C)C)C2(C)C` (stereo partly shown) [Compound 11060], the Ki was no more than 75 nM.

With `C=CCNC(=O)C(=O)C(CC1CCC1)NC(=O)[C@@H]1[C@@H]2[C@H](CN1C(=O)[C@@H](NC(=O)N[C@H](CN(C)S(=O)(=O)c1ccccc1)C(C)C)C1CCCCC1)C2(C)C` (stereo partly shown) [Compound 11075], the Ki was no more than 75 nM.

For the compound `C=CCNC(=O)C(=O)C(CC1CC1)NC(=O)[C@@H]1[C@@H]2[C@H](CN1C(=O)[C@@H](NC(=O)NC1(CN(C)S(=O)(=O)c3ccccc3)CCCCC1)C(C)(C)C)C2(C)C` (stereo partly shown) [Compound 11013], the Ki is no more than 75 nM.

As to `C=CCNC(=O)C(=O)C(CC1CCC1)NC(=O)[C@@H]1[C@@H]2[C@H](CN1C(=O)[C@@H](NC(=O)N[C@H](CN(C)S(=O)(=O)c1ccccc1)C(C)(C)C)C1CCCCC1)C2(C)C` (stereo partly shown) [Compound 11361], the Ki was no more than 75 nM.

For `C=CCNC(=O)C(=O)C(CC1CC1)NC(=O)[C@@H]1[C@@H]2[C@H](CN1C(=O)[C@@H](NC(=O)N[C@H](CN(C)S(=O)(=O)C(C)(C)C)C(C)(C)C)C(C)(C)C)C2(C)C` (stereo partly shown) [Compound 11204], the Ki was in the range of 75 to 250 nM.

On to `C#CCCC(NC(=O)[C@@H]1[C@@H]2[C@H](CN1C(=O)[C@@H](NC(=O)N[C@H](CN(C)S(=O)(=O)C(C)(C)C)C(C)(C)C)C1Cc3ccccc3C1)C2(C)C)C(=O)C(=O)NCC=C` (stereo partly shown) [Compound 11274], for which the Ki was no more than 75 nM.

For `C=CCNC(=O)C(=O)C(CC1CC1)NC(=O)[C@@H]1[C@@H]2[C@H](CN1C(=O)[C@@H](NC(=O)N[C@H](CN(C)S(=O)(=O)c1ccc(C(C)=O)cc1)C(C)(C)C)C(C)(C)C)C2(C)C` (stereo partly shown) [Compound 11322], the Ki was no more than 75 nM.

In the case of `CC(C)[C@@H](CN(C)S(=O)(=O)c1ccccc1)NC(=O)N[C@H](C(=O)N1C[C@H]2[C@@H]([C@H]1C(=O)NC(CC1CCC1)C(=O)C(N)=O)C2(C)C)C1CCCCC1` (stereo partly shown) [Compound 11050], the Ki is no more than 75 nM.

As for `CCCCC(NC(=O)[C@@H]1[C@@H]2[C@H](CN1C(=O)[C@@H](NC(=O)N[C@H](CN(C)S(=O)(=O)CC)C(C)(C)C)C1Cc3ccccc3C1)C2(C)C)C(=O)C(=O)NCC1CC1` (stereo partly shown) [Compound 11358], the Ki is no more than 75 nM.

Take `C=CCNC(=O)C(=O)C(CC1CC1)NC(=O)[C@@H]1[C@@H]2[C@H](CN1C(=O)[C@@H](NC(=O)N[C@H](CN(C)S(=O)(=O)c1ccccn1)C(C)(C)C)C(C)(C)C)C2(C)C` (stereo partly shown) [Compound 11145]: the Ki is no more than 75 nM.

As for `C#CCCC(NC(=O)[C@@H]1[C@@H]2[C@H](CN1C(=O)[C@@H](NC(=O)N[C@H](CN(C)S(=O)(=O)c1ccccc1)C(C)(C)C)C1CCCCC1)C2(C)C)C(=O)C(=O)NCC=C` (stereo partly shown) [Compound 11355], the inhibition constant (Ki) was no more than 75 nM.

Take `CCCCC(NC(=O)[C@@H]1[C@@H]2[C@H](CN1C(=O)[C@@H](NC(=O)N[C@H](CN(C)S(=O)(=O)C(C)(C)C)C(C)(C)C)C(C)(C)C)C2(C)C)C(=O)C(=O)NCC` (stereo partly shown) [Compound 11215]: the Ki lay within 75 to 250 nM.

For `C=CCNC(=O)C(=O)C(CC1CC1)NC(=O)[C@@H]1[C@@H]2[C@H](CN1C(=O)[C@@H](NC(=O)N[C@H](CN(CC1CCCCC1)S(C)(=O)=O)C(C)(C)C)C(C)(C)C)C2(C)C` (stereo partly shown) [Compound 11168], the Ki was no more than 75 nM.

On to `CC(C)CC(C)(CN(C)S(=O)(=O)c1ccccc1)NC(=O)N[C@H](C(=O)N1C[C@H]2[C@@H]([C@H]1C(=O)NC(CC1CCC1)C(=O)C(N)=O)C2(C)C)C(C)(C)C` (stereo partly shown) [Compound 11005], for which the Ki was 75 to 250 nM.

The same assay, now with this note: Table 3, range.
As for `CC(C)[C@@H](CNS(C)(=O)=O)NC(=O)N[C@H](C(=O)N1C[C@H]2[C@@H]([C@H]1C(=O)NC(CC1CCC1)C(=O)C(N)=O)C2(C)C)C(C)(C)C` (stereo partly shown) [Compound 12018], the Ki was no more than 75 nM.

As for `C=CCNC(=O)C(=O)C(CCC)NC(=O)[C@@H]1[C@@H]2[C@H](CN1C(=O)[C@@H](NC(=O)N[C@H](CNS(C)(=O)=O)[C@@H](C)CC)C(C)(C)C)C2(C)C` (stereo partly shown) [Compound 12021], the Ki is no more than 75 nM.

Consider `C=CCNC(=O)C(=O)C(CC1CC1)NC(=O)[C@@H]1[C@@H]2[C@H](CN1C(=O)[C@@H](NC(=O)N[C@H](CNS(=O)(=O)C1CC1)C(C)C)C(C)(C)C)C2(C)C` (stereo partly shown) [Compound 12014], for which the inhibition constant (Ki) is greater than 250 nM.

The assay is the same for the next values; noted with them: Table 5, range.
Regarding `C=CCNC(=O)C(=O)C(CCCC)NC(=O)[C@@H]1[C@@H]2[C@H](CN1C(=O)[C@@H](NC(=O)N[C@H](CN(C)C(=O)OC(C)(C)C)C1CCCCC1)C1CCCCC1)C2(C)C` (stereo partly shown) [Compound 14054], the Ki was greater than 250 nM.

These data come from US7759499B2, “Compounds as inhibitors of hepatitis C virus NS3 serine protease” (Schering Corporation, priority 2004, dated 2010).
